According to patent US10821115B2, “Compounds that inhibit Mcl-1 protein” (priority 2017, dated 2020):
Read-outs that look alike come from different tables or passages of the source.

Sequences of proteins named here, by UniProt entry; tags and fusion partners are left off. Residues count along the entry.
UniProt Q07820, 171-327: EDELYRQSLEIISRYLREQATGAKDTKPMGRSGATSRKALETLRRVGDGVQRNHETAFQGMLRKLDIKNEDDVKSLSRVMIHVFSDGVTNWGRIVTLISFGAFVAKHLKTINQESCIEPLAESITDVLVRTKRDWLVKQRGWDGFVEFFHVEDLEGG

Tests used:
[1] = test system: human multiple myeloma cell line, OPM-2; assay: Cell viability assay (OPM-2 10 FBS), CellTiter-Glo; format: cell-based; settings: OPM-2, 16 h
Procedure: Cell viability assay (OPM-2 10 FBS)
The human multiple myeloma cell line, OPM-2, was cultured in complete growth medium containing RPMI 1640 and 10% fetal bovine serum (FBS). Cells were seeded into 384-well plates at 3000 cells/well density in complete growth medium containing 10% FBS, and incubated for 16 h with serially diluted test compounds in a 37° C. incubator with 5% CO2. Cell viability was tested using CellTiter-Glo® assay (Promega, Madison, Wis.) according to the manufacturer recommendations. Luminescence was determined using an EnVision® Multilabel plate reader 25 min after the addition of detection reagent. IC50 values were then calculated with Xlfit using a logistical 4-parameter fit model in GraphPad Prism (GraphPad Software, San Diego, Calif.) or in Genedata Screener® (Genedata, Basel, Switzerland).

[2] = target: recombinant human Mcl-1 (residues 171-327) / Bim interaction (Homo sapiens (Human), UniProt Q07820); assay: biochemical; format: binding
[3] = read-out: OPM-2 10% FBS IC50 IP, OPM-2 cells, 10% FBS, 16 h incubation
[4] = 0.1 nM Mcl-1(171-327), 0.05 nM biotin-Bim (51-76), read-out: Mcl-1 HTRF IC50
[5] = TR-FRET, Mcl-1(171-327) / biotin-Bim (51-76), read-out: Mcl-1 HTRF IC50
[6] = read-out: OPM-2 10% FBS IC50 IP, OPM-2 cells, 10% FBS, 16 h, CellTiter-Glo

## C[C@@H]1[C@@H](C)C/C=C/[C@@](O)(CN2CCOCC2)[C@@H]2CC[C@H]2CN2C[C@@]3(CCCc4cc(Cl)ccc43)COc3ccc(cc32)C(=O)NS1(=O)=O (single isomer, unassigned) [Example 194]
[1]; [3]
  IC50: 54 nM

## CO[C@]1(c2ccccn2)/C=C/C[C@H](C)[C@@H](C)S(=O)(=O)NC(=O)c2ccc3c(c2)N(C[C@@H]2CC[C@H]21)C[C@@]1(CCCc2cc(Cl)ccc21)CO3 (single isomer, unassigned) [Example 100321]
[2]; Mcl-1 HTRF IC50, TR-FRET, Mcl-1(171-327) / biotin-Bim (51-76)
  IC50: 0.209 nM

## CO[C@@]1(CNCCN2CCOCC2)/C=C/C[C@H](C)[C@@H](C)S(=O)(=O)NC(=O)c2ccc3c(c2)N(C[C@@H]2CC[C@H]21)C[C@@]1(CCCc2cc(Cl)ccc21)CO3 [Example 34, (1 S,3′R,6′R,7′S,8′E,11′S,12′R)-6-chloro-7′-methoxy-11′,12′-dimethyl-7′-(((2-(4-morpholinyl)ethyl)amino)methyl)-3,4-dihydro-2H, 15′H-spiro[naphthalene-1,22′-[20]oxa[13]thia[1,14]diazatetracyclo[14.7.2.0˜3,6˜.0˜19,24˜]pentacosa[8,16,18,24]tetraen]-15′-one 13′,13′-dioxide]
[2]; [4]
  IC50: 0.495 nM

## CO[C@]1(CNCCN2CCOCC2)/C=C/C[C@H](C)[C@@H](C)S(=O)(=O)NC(=O)c2ccc3c(c2)N(C[C@@H]2CC[C@H]21)C[C@@]1(CCCc2cc(Cl)ccc21)CO3 [Example 36, (1S,3′R,6′R,7′R,8′E,11′S,12′R)-6-chloro-7′-methoxy-11′,12′-dimethyl-7′-(((2-(4-morpholinyl)ethyl)amino)methyl)-3,4-dihydro-2H,15′H-spiro[naphthalene-1,22′-[20]oxa[13]thia[1,14]diazatetracyclo [14.7.2.0~3,6~.0~19,24~]pentacosa[8,16,18,24]tetraen]-15′-one 13′,13′-dioxide]
[2]; [4]
  IC50: 0.554 nM

## CCO[C@@]1(CN2CCN3CCOC[C@@H]3C2)/C=C/C[C@H](C)[C@@H](C)S(=O)(=O)NC(=O)c2ccc3c(c2)N(C[C@@H]2CC[C@H]21)C[C@@]1(CCCc2ccccc21)CO3 [Example 105, (1S,3′R,6′R,7′S,8′E,11′S,12′R)-7′-ethoxy-7′-((9aS)-hexahydropyrazino[2,1-c][1,4]oxazin-8(1H)-ylmethyl)-11′,12′-dimethyl-3,4-dihydro-2H, 15′H-spiro[naphthalene-1,22′-[20]oxa[13]thia[1,14]diazatetracyclo[14.7.2.0-3,6˜.0˜19,24˜]pentacosa[8,16,18,24]tetraen]-15′-one 13′,13′-dioxide]
[1]; [3]
  IC50: 655 nM

## CC(C)N1CCO[C@]2(/C=C/C[C@H](C)[C@@H](C)S(=O)(=O)NC(=O)c3ccc4c(c3)N(C[C@@H]3CC[C@H]32)C[C@@]2(CCCc3cc(Cl)ccc32)CO4)C1 [Example 127, (1 S,3′R,6′R,7′S,8′E, 11′S,12′R)-6-chloro-11′,12′-dimethyl-4″-(1-methylethyl)-3,4-dihydro-2H,15′H-dispiro[naphthalene-1,22′-[20]oxa[13]thia[1,14]diazatetracyclo[14.7.2.0-3,6˜.0˜19,24˜]pentacosa[8,16,18,24]tetraene-7′,2″-[1,4]oxazinan]-15′-one 13′,13′-dioxide]
[1]; [3]
  IC50: 6120 nM

## CO[C@]1(CN2C[C@H]3CCCCN3CC2=O)/C=C/C[C@H](C)[C@@H](C)S(=O)(=O)NC(=O)c2ccc3c(c2)N(C[C@@H]2CC[C@H]21)C[C@@]1(CCCc2cc(Cl)ccc21)CO3 [Example 154, (1 S,3′R,6′R,7′R,8′E,11′S,12′R)-6-chloro-7′-methoxy-11′,12′-dimethyl-7′-(((9aR)-3-oxooctahydro-2H-pyrido[1,2-a]pyrazin-2-yl)methyl)-3,4-dihydro-2H,15′H-spiro[naphthalene-1,22′-[20]oxa[13]thia[1,14]diazatetracyclo[14.7.2.0-3,6˜.0˜19,24˜]pentacosa[8,16,18,24]tetraen]-15′-one 13′,13′-dioxide]
[1]; [3]
  IC50: 554 nM

## CO[C@@]1(CN2CCN(C(C)C)CC2)/C=C/C[C@H](C)[C@@H](C)S(=O)(=O)NC(=O)c2ccc3c(c2)N(C[C@@H]2CC[C@H]21)C[C@@]1(CCCc2cc(Cl)ccc21)CO3 [Example 239, (1S,3′R,6′R,7′S,8′E,11′S,12′R)-6-chloro-7′-methoxy-11′,12′-dimethyl-7′-((4-(1-methylethyl)-1-piperazinyl)methyl)-3,4-dihydro-2H,15′H-spiro[naphthalene-1,22′-[20]oxa[13]thia[1,14]diazatetracyclo [14.7.2.0~3,6~.0~19,24~]pentacosa[8,16,18,24]tetraen]-15′-one 13′,13′-dioxide]
[2]; [4]
  IC50: 0.146 nM

## C[C@@H]1CS(=O)(=O)NC(=O)c2ccc3c(c2)N(C[C@@H]2CC[C@H]2[C@](O)(CN2CCN4CCOC[C@@H]4C2)CC[C@@H]1C)C[C@@]1(CCCc2cc(Cl)ccc21)CO3 [Example 405, (1S,3′R,6′R,7′S,10′S,11′S)-6-chloro-7′-((9aS)-hexahydropyrazino[2,1-c][1,4]oxazin-8(1H)-ylmethyl)-7′-hydroxy-10′,11′-dimethyl-3,4-dihydro-2H, 15′H-spiro[naphthalene-1,22′-[20]oxa[13]thia[1,14]diazatetracyclo[14.7.2.0-3,6˜.0˜19,24˜]pentacosa[16,18,24]trien]-15′-one 13′,13′-dioxide]
[1]; [3]
  IC50: 18 nM

## CCO[C@]1(CN2CCN(C(C)C)[C@H](C)C2)CCC[C@H](C)[C@@H](CCOC)S(=O)(=O)NC(=O)c2ccc3c(c2)N(C[C@@H]2CC[C@H]21)C[C@@]1(CCCc2cc(Cl)ccc21)CO3 [Example 519, (1S,3′R,6′R,7′R,11′S,12′R)-6-chloro-7′-ethoxy-12′-(2-methoxyethyl)-11′-methyl-7′-(((3R)-3-methyl-4-(2-propanyl)-1-piperazinyl)methyl)-3,4-dihydro-2H, 15′H-spiro[naphthalene-1,22′-[20]oxa[13]thia[1,14]diazatetracyclo[14.7.2.0-3,6˜.0˜19,24˜]pentacosa[16,18,24]trien]-15′-one 13′,13′-dioxide]
[1]; [3]
  IC50: 116 nM

## CO[C@@]1(c2ccccn2)/C=C/C[C@H](C)[C@@H](C)S(=O)(=O)NC(=O)c2ccc3c(c2)N(C[C@@H]2CC[C@H]21)C[C@@]1(CCCc2cc(Cl)ccc21)CO3 [Example 100003, (1 S,3′R,6′R,7′S,8′E,11′S, 12′R)-6-chloro-7′-methoxy-11′,12′-dimethyl-7′-(2-pyridinyl)-3,4-dihydro-2H, 15′H-spiro[naphthalene-1,22′ [20]oxa[13]thia[1,14]diazatetracyclo[14.7.2.0-3,6˜.0˜19,24˜]pentacosa[8,16,18,24]tetraen]-15′-one 13′,13′-dioxide]
[2]; [5]
  IC50: 0.42 nM

## C[C@@H]1[C@@H](C)C/C=C/[C@@](O)(CO)[C@@H]2CC[C@H]2CN2C[C@@]3(CCCc4cc(Cl)ccc43)COc3ccc(cc32)C(=O)NS1(=O)=O [Example 100231, (1S,3′R,6′R,7′S,8′E,11′S,12′R)-6-chloro-7′-hydroxy-7′-(hydroxymethyl)-11′,12′-dimethyl-3,4-dihydro-2H,15′H-spiro[naphthalene-1,22′-[20]oxa[13]thia[1,14]diazatetracyclo [14.7.2.0~3,6~.0~19,24~]pentacosa[8,16,18,24]tetraen]-15′-one 13′,13′-dioxide]
[2]; [5]
  IC50: 0.312 nM

## C[C@@H]1[C@@H](C)C/C=C/[C@@](O)(CO)[C@@H]2CC[C@H]2CN2C[C@@]3(CCCc4cc(Cl)ccc43)COc3ccc(cc32)C(=O)NS1(=O)=O [Example 100262, (1S,3′R,6′R,7′S,8′E,11′S,12′R)-6-chloro-7′-hydroxy-7′-(hydroxymethyl)-11′,12′-dimethyl-3,4-dihydro-2H,15′H-spiro[naphthalene-1,22′-[20]oxa[13]thia[1,14]diazatetracyclo [14.7.2.0~3,6~.0~19,24~]pentacosa[8,16,18,24]tetraen]-15′-one 13′,13′-dioxide]
[2]; [5]
  IC50: 0.134 nM

## CO[C@@]1(CCN(C)C2CCCC2)/C=C/C[C@H](C)[C@@H](C)S(=O)(=O)NC(=O)c2ccc3c(c2)N(C[C@@H]2CC[C@H]21)C[C@@]1(CCCc2cc(Cl)ccc21)CO3 [Example 100418, (1S,3′R,6′R,7′S,8′E,11′S,12′R)-6-chloro-7′-(2-(cyclopentyl(methyl)amino)ethyl)-7′-methoxy-11′,12′-dimethyl-3,4-dihydro-2H,15′H-spiro[naphthalene-1,22′-[20]oxa[13]thia[1,14]diazatetracyclo [14.7.2.0~3,6~.0~19,24~]pentacosa[8,16,18,24]tetraen]-15′-one 13′,13′-dioxide]
[1]; [6]
  IC50: 141 nM

## C[C@@H]1[C@@H](C)C/C=C/[C@@](O)(C#CCCCN2CCOCC2)[C@@H]2CC[C@H]2CN2C[C@@]3(CCCc4cc(Cl)ccc43)COc3ccc(cc32)C(=O)NS1(=O)=O [Example 100493, (1S,3′R,6′R,7′S,8′E,11′S,12′R)-6-chloro-7′-hydroxy-11′,12′-dimethyl-7′-(5-(4-morpholinyl)-1-pentyn-1-yl)-3,4-dihydro-2H,15′H-spiro[naphthalene-1,22′-[20]oxa[13]thia[1,14]diazatetracyclo [14.7.2.0~3,6~.0~19,24~]pentacosa[8,16,18,24]tetraen]-15′-one 13′,13′-dioxide]
[1]; [6]
  IC50: 512 nM
